{"sequences": {"note": "Chains of the proteins cited; added tags and fusions are not shown. Residues count along the entry.", "UniProt P26684, 21-426": "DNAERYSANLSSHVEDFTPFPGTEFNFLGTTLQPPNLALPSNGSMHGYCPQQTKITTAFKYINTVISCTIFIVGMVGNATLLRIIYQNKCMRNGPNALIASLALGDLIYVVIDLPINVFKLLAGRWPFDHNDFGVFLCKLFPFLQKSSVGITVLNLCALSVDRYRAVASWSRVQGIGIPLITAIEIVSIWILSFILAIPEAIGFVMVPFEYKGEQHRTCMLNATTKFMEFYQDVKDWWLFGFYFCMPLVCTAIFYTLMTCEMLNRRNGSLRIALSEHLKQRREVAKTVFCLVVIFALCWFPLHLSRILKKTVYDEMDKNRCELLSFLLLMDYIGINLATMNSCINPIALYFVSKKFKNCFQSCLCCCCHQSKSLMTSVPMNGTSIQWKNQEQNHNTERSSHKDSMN"}, "source": "patent US6004965A", "about": "“Sulfonamides” (Hoffmann-La Roche Inc., priority 1994, dated 1999)", "target": "T1, endothelin-induced contractions in isolated rat aorta rings (Rattus norvegicus, UniProt P26684)", "T1 construct": "cut out from the thorax aorta of adult Wistar-Kyoto rats; from tissue; host or cells: thoracic aorta rings of adult Wistar-Kyoto rats, endothelium removed", "experiment": "Inhibition of endothelin-induced contractions in isolated rat aorta rings", "type": "cell-based, rat (Wistar-Kyoto)", "details": "in the absence of test compounds; read-out: EC50 of endothelin in the absence of test compounds (half-maximum contraction)", "protocol": "Rings with a length of 5 mm were cut out from the thorax aorta of adult Wistar-Kyoto rats. The endothelium was removed by lightly rubbing the internal surface. Each ring was immersed at 37° C. in 10 ml of Krebs-Henseleit solution in an isolated bath while gassing with 95% O2 and 5% CO2. The isometric stretching of the rings was measured. The rings were stretched to a pre-tension of 3 g.\nThe corresponding pA2 value, which is a measure of the activity of the test compound, was calculated using a computer programme according to the following equation from the \"dose ratio\" DR for each individual dosage-activity curve.\npA2 =log(DR-1)-log(antagonist-concentration)", "data": [{"substance": "endothelin [reference compound]", "values": [{"measurement": "EC50", "result": 0.3, "unit": "nM"}]}]}
